Protein sequences, listed by entry. Tags and fused reporters are not part of them.
UniProt P25101, whole entry: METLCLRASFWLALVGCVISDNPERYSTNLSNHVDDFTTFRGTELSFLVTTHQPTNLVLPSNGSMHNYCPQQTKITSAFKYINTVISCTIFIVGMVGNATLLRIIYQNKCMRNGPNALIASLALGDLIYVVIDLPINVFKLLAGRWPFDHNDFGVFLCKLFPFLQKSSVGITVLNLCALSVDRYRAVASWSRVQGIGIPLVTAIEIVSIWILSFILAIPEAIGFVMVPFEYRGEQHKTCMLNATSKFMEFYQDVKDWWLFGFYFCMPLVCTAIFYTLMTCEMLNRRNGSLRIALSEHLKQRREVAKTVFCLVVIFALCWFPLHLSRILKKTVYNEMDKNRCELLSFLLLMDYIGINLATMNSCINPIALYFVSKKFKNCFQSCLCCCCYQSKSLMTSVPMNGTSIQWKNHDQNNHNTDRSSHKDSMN

According to ChEMBL document CHEMBL1134271 (J Med Chem, 2001):

Experiments:
[1] = molecular target: T1, Endothelin receptor type B (Homo sapiens, UniProt P24530); experiment: Inhibitory activity against human endothelin B receptor
T1 sequence (P24530 whole entry): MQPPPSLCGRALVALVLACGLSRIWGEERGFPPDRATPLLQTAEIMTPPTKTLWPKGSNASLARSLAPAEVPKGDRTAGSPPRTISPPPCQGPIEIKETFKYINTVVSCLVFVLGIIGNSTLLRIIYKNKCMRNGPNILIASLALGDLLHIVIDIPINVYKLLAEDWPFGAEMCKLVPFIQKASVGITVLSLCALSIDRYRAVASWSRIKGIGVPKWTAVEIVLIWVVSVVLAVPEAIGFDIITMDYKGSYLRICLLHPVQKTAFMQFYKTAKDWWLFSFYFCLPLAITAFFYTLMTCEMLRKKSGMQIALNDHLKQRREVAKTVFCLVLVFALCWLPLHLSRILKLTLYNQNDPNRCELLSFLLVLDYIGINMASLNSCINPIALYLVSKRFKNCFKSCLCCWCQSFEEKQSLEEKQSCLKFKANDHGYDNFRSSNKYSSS

Endothelin-1 receptor = Endothelin-1 receptor (Homo sapiens, UniProt P25101); experiment: Inhibitory activity against human endothelin A receptor
Procedure, shortened: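 Radioligand binding on human ETA receptor expressed in CHO cells, measuring displacement of [125I]ET-1. Eleven concentrations from 10^-10 to 10^-5 M were tested. IC50 was calculated from the mean of two measurements.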

## CCCCN(CCCC)C(=O)CN1C[C@H](c2cc(OC)c3c(c2)OCO3)[C@@H](C(=O)O)[C@@H]1CC(C)(C)CCC [ABT-546]
[1]
  IC50: 13 µM
Endothelin-1 receptor
  IC50: 0.00049 µM
